Data taken from patent US9018213B2, “Alicyclic[c] benzopyrone derivatives and uses thereof” (Huazhong University of Science & Technology, priority 2011, dated 2015).

Assays:
KM mice = conditions: mouse, in vivo
in vivo = conditions: both, Kunming (KM), mouse, po

SMILES | EPS at effective dosage (in words) (KM mice) | ED50 (in vivo) [mg/kg]
Cc1nc2n(c(=O)c1CCN1CCC(c3noc4cc(F)ccc34)CC1)CCCC2 [risperidone] | did not cause EPS at effective dosage | 0.92
Cc1cc2c(s1)Nc1ccccc1N=C2N1CCN(C)CC1 [olanzapine] | – | 2.23
